Assay results taken from patent US12358970B2, “Methods of exogenous drug activation of chemical-induced signaling complexes expressed in engineered cells in vitro and in vivo” (Seattle Children's Hospital, priority 2016, dated 2025).

Columns and labels:
[1] = test system: STAT5 phosphorylation in IL2R-CISC expressing T cells; assay: phospho-STAT5 signaling after 20 days of culture; format: cell-based, human; settings: mock, GFP and IL2R-CISC cell types
[2] = test system: CD25 expression on IL2R-CISC V3 T-cells; assay: FACS T-cell marker analysis of CISC V3 expanded cells; format: cell-based; settings: IL2R-CISC V3 T-cells expanded 15 days in the indicated agent
Protocol: Peripheral blood T-cells were activated using anti-CD3/CD28 beads transduced with IL2R-CISC V3 lentivirus, expanded in IL-2 or the indicated IL2R-CISC ligand for 15 days. […] In contrast, cells expanded through their IL2R-CISC receptors have high CD25 expression, as low media IL-2 promotes minimal turnover of native IL2R.
The IL2-CISC induced signaling pathways were analyzed to determine whether the magnitude of the signaling pathway is sufficient to produce clinically relevant activity. A T-Cell marker analysis for CISC V3 expanded cells was performed, as shown in the flow cell data of FIG. 20.

[3] = test system: IL2R-CISC expressing primary human T-cells; assay: Selective enrichment of IL2R-CISC expressing T cells, flow cytometry of cis-linked GFP/mCherry marker; format: cell-based; settings: IL2R-CISC V3 experiment; mock IL-2 treatments over 15 days
Protocol: Each architecture of IL2R-CISC (i.e. 1210, 1211, and 1233) was cis-linked together with GFP using 2A sequences, and placed under the control of an MND promoter in a lentiviral expression cassette (as schematized in FIG. 5, bottom). Lentiviral particles from each IL2R-CISC architecture were generated and used to transduce primary human T-cells. Following transduction, the cells were grown for 2 days in IL2, and then divided in half, with half grown in IL2 alone and half in rapamycin alone, as indicated.
Lentiviral particles from each IL2R-CISC architecture were generated and used to transduce primary human T-cells. CD4+ T cells were activated for 60 hours. The cells were then plated in a 24-well dish by plating 1 million cells per well in 1 mL medium with IL2/7/15. Lentivirus was transduced with or without beads, using 15 μL of IL2R-CISC and 3 μL of MND-GFP control with protamine sulfate at 4 μg/mL (0.5 mL medium) in a 24-well dish. […] The GFP signal was determined and the IL2R-CISC level of transduced T cells was determined. […]
Following transduction, the cells were grown for 2 days in IL2, and then divided in half, with half grown in IL2 alone and half in rapamycin alone, as indicated. […] The T cell viability was determined and the expression of GFP+ population and IL2R-CISC expression was determined by using anti-FRB antibody and a secondary APC antibody. […]

Substance: IL-2: interleukin 2 cytokine used as comparison culture condition
- Phosphorylation of STAT5 in response to treatment [1]: respond robustly to IL-2 treatment
- CD25 expression [2]: generally low expression of CD25
- Change in mCherry positive cells [3]: gradual reduction in mCherry positive cells
